pEC50, pKi: −log10 of the molar value. Like-named read-outs stand apart in the source and are kept apart here.
What was measured:
NOP receptor [1] = molecular target: T1, NOP receptor (Homo sapiens, UniProt P41146); test: [35S]GTPγS binding assay NOP; settings: for pEC50: read-out: [35S]GTPγS NOP EC50
κ receptors [2] = molecular target: T2, κ receptors (Homo sapiens, UniProt P41145); test: [35S]GTPγS binding assay K; settings: for pEC50: read-out: [35S]GTPγS K EC50
δ [3] = molecular target: T3, δ (Homo sapiens, UniProt P41143); settings: read-out: δ Ki; cited from earlier work
NOP receptor [4] = molecular target: T1, NOP receptor; settings: cited from earlier work
mu [5] = molecular target: T4, mu (Homo sapiens, UniProt P35372); settings: read-out: mu Ki; cited from earlier work
κ receptors [6] = molecular target: T2, κ receptors; test: Receptor binding K (Table 1); settings: read-out: Receptor Binding Ki (nM) K
κ opioid receptor = κ opioid receptor (Homo sapiens, UniProt P41145); settings: read-out: Ki at the κ opioid receptor; cited from earlier work
NOP receptor [7] = molecular target: T1, NOP receptor; settings: read-out: EC50, stimulation of [35S]GTPγS binding to the NOP receptor; cited from earlier work
NOP receptor [8] = molecular target: T1, NOP receptor; settings: read-out: binding affinity Ki at the NOP receptor; cited from earlier work
δopioid receptor = δopioid receptor (Homo sapiens, UniProt P41143); settings: read-out: Ki at the δ opioid receptor; cited from earlier work
[9] = system: HbSS-BERK and HbAA-BERK mice; test: Grip force (deep tissue hyperalgesia); settings: for grip force vs immediately after H/R: injected following H/R
[10] = system: HbSS-BERK and HbAA-BERK mice; test: Paw withdrawal frequency (PWF) to 9.8 mN von Frey monofilament; settings: for PWF (9.8 mN von Frey) vs baseline / PWF vs vehicle-treated mice: no H/R; for PWF vs vehicle-treated mice: up to 24 h after injection
[11] = system: HbSS-BERK and HbAA-BERK mice; test: Dorsal cutaneous blood flow, laser doppler velocimetry; settings: for dorsal cutaneous blood flow: no H/R
mice = test: Catalepsy (time spent on the bar)
[12] = system: HbSS-BERK and HbAA-BERK mice; test: Withdrawal responses to heat (PWL, Hargreaves test); settings: for sensitivity to heat: no H/R; for PWL to heat vs baseline / PWL to heat vs immediately after H/R: treated following H/R
[13] = system: HbSS-BERK and HbAA-BERK mice; test: Dorsal skin temperature, infrared thermography
[14] = system: HbSS-BERK and HbAA-BERK mice; test: Withdrawal responses to cold (cold plate); settings: for PWF to cold vs immediately after H/R / PWL to cold vs immediately after H/R: injected following H/R; for cold sensitivity (PWL and PWF to cold): no H/R
[15] = system: HbSS-BERK and HbAA-BERK mice; test: Mechanical paw withdrawal threshold, von Frey filaments; settings: for mechanical withdrawal threshold vs baseline: after injection
κ receptors [16] = molecular target: T2, κ receptors; settings: cited from earlier work
mu [17] = molecular target: T4, mu; settings: read-out: Binding affinity Ki mu; cited from earlier work
mu [18] = molecular target: T4, mu; settings: cited from earlier work
δ [19] = molecular target: T3, δ; settings: cited from earlier work
[20] = HbAA-BERK mice, no H/R, up to 180 min
[21] = HbSS-BERK mice, following H/R, up to 24 h
[22] = HbSS-BERK mice, injected following H/R

The chains behind the UniProt entries cited, without tags or fusion partners. Where a name states a change or a piece, a line headed by the entry shows the natural chain unless it says otherwise.
UniProt P41146: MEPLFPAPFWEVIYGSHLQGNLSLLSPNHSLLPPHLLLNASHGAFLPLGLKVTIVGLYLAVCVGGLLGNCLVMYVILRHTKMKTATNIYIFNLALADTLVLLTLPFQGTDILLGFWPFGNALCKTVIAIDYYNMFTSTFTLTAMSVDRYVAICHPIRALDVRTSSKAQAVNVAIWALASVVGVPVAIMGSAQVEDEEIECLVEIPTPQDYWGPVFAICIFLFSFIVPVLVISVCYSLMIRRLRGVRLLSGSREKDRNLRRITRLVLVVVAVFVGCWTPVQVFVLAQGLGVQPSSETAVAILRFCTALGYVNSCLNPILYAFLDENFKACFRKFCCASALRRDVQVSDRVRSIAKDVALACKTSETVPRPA
UniProt P41145: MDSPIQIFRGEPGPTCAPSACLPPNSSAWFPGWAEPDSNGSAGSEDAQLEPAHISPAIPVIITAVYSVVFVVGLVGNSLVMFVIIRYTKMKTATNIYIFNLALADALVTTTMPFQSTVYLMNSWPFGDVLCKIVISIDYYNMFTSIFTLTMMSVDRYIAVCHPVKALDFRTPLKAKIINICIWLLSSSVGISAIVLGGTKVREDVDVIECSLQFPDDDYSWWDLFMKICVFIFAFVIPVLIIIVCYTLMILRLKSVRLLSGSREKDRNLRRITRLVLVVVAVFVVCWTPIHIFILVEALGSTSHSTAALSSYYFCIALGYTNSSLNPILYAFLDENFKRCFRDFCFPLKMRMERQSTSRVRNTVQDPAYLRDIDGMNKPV
UniProt P35372, whole entry, looked up: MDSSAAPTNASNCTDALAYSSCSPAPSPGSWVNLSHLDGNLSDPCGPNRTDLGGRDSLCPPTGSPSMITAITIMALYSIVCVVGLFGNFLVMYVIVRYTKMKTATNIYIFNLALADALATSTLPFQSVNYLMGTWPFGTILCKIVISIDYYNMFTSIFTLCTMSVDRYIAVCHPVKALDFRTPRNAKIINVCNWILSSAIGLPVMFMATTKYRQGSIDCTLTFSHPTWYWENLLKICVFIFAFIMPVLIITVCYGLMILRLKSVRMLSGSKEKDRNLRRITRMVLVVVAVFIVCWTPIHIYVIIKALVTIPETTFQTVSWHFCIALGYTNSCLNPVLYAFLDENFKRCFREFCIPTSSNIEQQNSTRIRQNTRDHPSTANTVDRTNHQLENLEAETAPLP

CC(C)C1CCC(N2CCC(N3C(=O)Cc4ccccc43)CC2)CC1 (stereo not shown)
pEC50 (NOP receptor [1]): 7.59 | pEC50 (κ receptors [2]): < 5.00

CC(C)C1CCC(N2CCC(O)(c3cccc(C(F)(F)F)c3)CC2)CC1 (stereo not shown)
pKi (δ [3]): 5.25 | Selectivity mu/NOP (NOP receptor [4]): 3 | pKi (NOP receptor [4]; read-out: NOP Ki, recombinant HEK-293 cells): 7.92 | pKi (mu [5]): 7.44

CC(C)[C@H]1CC[C@@H](N2CCC3(CC2)C(=O)N(CC(=O)OC(C)(C)C)CN3c2ccccc2)CC1
Ki (κ receptors [6]): 270 nM | [35S]GTPγS NOP % Stim (NOP receptor [1]; full agonist N/OFQ as standard): 81 ± 13% | pEC50 (NOP receptor [1]): 7.72 | [35S]GTPγS K % Stim (κ receptors [2]): 11 ± 2% | pEC50 (κ receptors [2]): 6.57

CCC1C(=O)N(C2CCN(C3CCC(C(C)C)CC3)CC2)c2ccccc21 (stereo not shown)
Ki (κ receptors [6]): 82.4 nM | pEC50 (κ receptors [2]): < 5.00

NC(=O)[C@@]1(c2ccccc2)C[C@H]2CC[C@@H](C1)N2C(c1ccccc1Cl)c1ccccc1Cl
pKi (κ opioid receptor): 6.57 | pEC50 (NOP receptor [7]): 8.22 | pKi (NOP receptor [8]): 8.77 | pKi (δopioid receptor): 5.63

O=C1Cc2ccccc2N1C1CCN(C2C3CCCC2CCC3)CC1 (stereo not shown)
pEC50 (NOP receptor [1]): 7.55 | pEC50 (κ receptors [2]): < 5.00

O=C1Cc2ccccc2N1C1CCN(C2CCC3CCCc4cccc2c43)CC1 (stereo not shown)
Ki (κ receptors [6]): 681 nM | pEC50 (κ receptors [2]): < 5.00

O=C1Cc2ccccc2N1C1CCN(C2CCCCCCC2)CC1 [Compound 3, 1-(1-cyclooctylpiperidin-4-yl)-indolin-2-one]
grip force vs immediately after H/R ([9]; HbAA-BERK mice): significant increase in grip force at 30 min and remained increased up to 24 h | grip force vs vehicle-treated mice [9, 20]: remained significantly increased | grip force vs vehicle-treated mice [9, 21]: remained significantly increased | grip force vs immediately after H/R ([9]; HbSS-BERK mice): remained increased in AT-200-treated mice up to 24 h and returned to baseline at 240 min of injection | grip force vs baseline ([9]; HbSS-BERK mice, no H/R): increased after 30 min of injection and remained increased until 180 min | grip force vs vehicle-treated mice ([9]; HbSS-BERK mice, no H/R, up to 180 min): remained significantly increased | PWF (9.8 mN von Frey) vs immediately after H/R ([10]; HbAA-BERK mice, injected following H/R): remained lower up to 24 h as compared to H/R and returned to baseline at 240 minutes | PWF (9.8 mN von Frey) vs baseline ([10]; HbAA-BERK mice): decreased after 30 min of injection and remained decreased after 24 h | PWF vs vehicle-treated mice ([10]; HbAA-BERK mice): remained significantly decreased | PWF (9.8 mN von Frey) vs baseline and immediately after H/R [10, 22]: significantly decreased after 30 min of injection of Compound 3 and remained decreased after 24 h | PWF (9.8 mN von Frey) vs baseline ([10]; HbSS-BERK mice): decreased after 30 min of injection and remained decreased after 24 h | PWF vs vehicle-treated mice ([10]; HbSS-BERK mice): remained significantly decreased | dorsal cutaneous blood flow ([11]; HbAA-BERK mice): Neither HbSS-BERK nor HbAA-BERK mice showed any changes | dorsal cutaneous blood flow vs immediately after H/R injury [11, 22]: significant decrease in blood flow after 60 min to 24 h after injection | dorsal cutaneous blood flow ([11]; HbSS-BERK mice): Neither HbSS-BERK nor HbAA-BERK mice showed any changes | time spent on the bar vs vehicle-treated mice (mice; at any time points): no significant difference | catalepsy (mice; mice injected with AT-200): did not exhibit catalepsy | sensitivity to heat ([12]; HbAA-BERK mice): only to 180 min in HbAA-BERK | PWL to heat vs baseline ([12]; HbAA-BERK mice): returned to baseline at 24 h | PWL to heat vs immediately after H/R ([12]; HbAA-BERK mice): significant increase in PWL to heat following AT-200 treatment from 30 min to 24 h | sensitivity to heat ([12]; HbSS-BERK mice): Sustained decrease in sensitivity to heat was observed in HbSS-BERK from 30 min to 24 h | PWL to heat vs baseline ([12]; HbSS-BERK mice): remained increased up to 24 h as compared to baseline | PWL to heat vs immediately after H/R ([12]; HbSS-BERK mice): significant increase in PWL to heat following AT-200 treatment from 30 min to 24 h | pEC50 (κ receptors [2]): 6.56 | dorsal skin temperature ([13]; HbAA-BERK mice, no H/R): Neither treatment group in the HbAA-BERK mice showed any changes | skin temperature vs baseline and immediately after H/R injury ([13]; HbAA-BERK mice, treated following H/R): did not exhibit any changes in skin temperature as compared to baseline and immediately after H/R injury, except for at 24 h | dorsal skin temperature vs baseline ([13]; HbSS-BERK mice, no H/R): significant decrease in dorsal skin temperature 24 h after injection | skin temperature vs immediately after H/R ([13]; HbSS-BERK mice, treated following H/R): significant decrease in skin temperature from 30 min to 24 h after treatment | PWF to cold vs immediately after H/R ([14]; HbAA-BERK mice): decrease in PWF to cold from 30 min to 24 h | PWL to cold vs immediately after H/R ([14]; HbAA-BERK mice): significant increase in PWL to cold from 30 min to 90 min | cold sensitivity (PWL and PWF to cold) ([14]; HbAA-BERK mice): significant decrease in cold sensitivity following AT-200 treatment from 30 min to 180 min | PWF to cold vs immediately after H/R ([14]; HbSS-BERK mice): decrease in PWF to cold up to 24 h | PWL to cold vs immediately after H/R ([14]; HbSS-BERK mice): sustained increase in PWL to cold | cold sensitivity (PWL and PWF to cold) ([14]; HbSS-BERK mice): significant decrease in cold sensitivity following AT-200 treatment from 30 min to 180 min | withdrawal threshold vs vehicle-treated mice ([15]; HbAA-BERK mice, following H/R, up to 90 min): remained significantly increased | withdrawal threshold vs baseline ([15]; HbAA-BERK mice, injected following H/R injury): increase in withdrawal threshold occurred in HbAA-BERK following 30 min of injection, but returned to baseline after 240 min | mechanical withdrawal threshold vs baseline ([15]; HbAA-BERK mice, no H/R): increase in withdrawal threshold occurred in HbAA-BERK following 90 min of injection, but returned to baseline after 24 h | withdrawal threshold vs vehicle-treated mice [15, 20]: remained significantly increased | withdrawal threshold vs vehicle-treated mice [15, 21]: remained significantly increased | mechanical withdrawal threshold vs baseline and immediately after H/R ([15]; HbSS-BERK mice, injected following H/R injury): significant increase in mechanical withdrawal threshold obtained using von Frey monofilaments after 30 min of injection and remained increased after 24 h | mechanical withdrawal threshold vs baseline ([15]; HbSS-BERK mice, no H/R): increased after 30 min of injection of AT-200 and remained increased after 24 h | withdrawal threshold vs vehicle-treated mice ([15]; HbSS-BERK mice, no H/R, up to 24 h): remained significantly increased

CC1(N2CCC(n3c([C@@H]4CCCNC4)nc4ccccc43)CC2)CCCCCCC1 [Compound 10, 1-[1-(1-methylcyclooctyl)-4-piperidinyl]-2-[(3R)-3-piperidinyl]-1H-benzimidazole]
Emax (%) κ (κ receptors [16]; percentage of maximal response of enadoline): 79% | pEC50 (κ receptors [16]; read-out: Functional activity [35S]GTPγS EC50 κ, HEK-293 cells): 5.33 | pKi (mu [17]): 8.98 | Emax (%) mu (mu [18]; percentage of maximal response of DAMGO): 30% | pEC50 (mu [18]; read-out: Functional activity [35S]GTPγS EC50 mu, CHO-K1 cells): 7.47 | Emax (%) δ (δ [19]; percentage of maximal response of DPDPE): 43% | pEC50 (δ [19]; read-out: Functional activity [35S]GTPγS EC50 δ, CHO-K1 cells): 7.10
